Results reported in patent US20030224036A1, “Hla class I a2 tumor associated antigen peptides and vaccine compositions” (priority 1999, published 2003).

Key:
human T cells (PBMC) = assay: In vitro primary immunization of normal human PBMC, T cell proliferation (3H-thymidine incorporation); type: cell-based
HLA-DR molecules = settings: cited from earlier work

Substance | antigen concentration at which the 10,000 cpm proliferation level was reached (human T cells (PBMC)) | donors with primary T cell responses (human T cells (PBMC)) | number of the most prevalent HLA-DR molecules bound / tested (HLA-DR molecules) | potency relative to TT 830-843 antigen for activation of T cell responses, molar basis (human T cells (PBMC)) | donors with primary T cell responses (human T cells (PBMC); three normal donors, third round of stimulation)
QYIKANSKFIGITE [TT 830-843, reference compound] | about 10,000 ng/ml | 2 out of 3 | seven of 16 | – | –
aKXVAAWTLKAAa-NH2 [PADRE, a=D-alanine, X=cyclohexylalanine] | – | – | – | about 100 fold | all three

Like-named read-outs stand apart in the source and are kept apart here.
